According to patent US8580787B2, “Compositions and methods for reducing activation of alpha-1 receptors” (Eye Therapies LLC, priority 2008, dated 2013):

Legend:
[1] = Example 4: red eye study, cumulative red scores, brimonidine vs VISINE Original; conditions: brimonidine at 0.05% as printed (1 of 15)
[2] = brimonidine at 0.033%, left eye, 4 hrs after previous treatment
[3] = FIG. 2
[4] = Example 2: Lasik prophylaxis, postoperative hyperemia, hemorrhage and flap dislocation
[5] = 0.03% brimonidine nasal spray repeated for one week, n of 1

Brc1c(N=C2NCCN2)ccc2nccnc12.O=C(O)C(O)C(O)C(=O)O [brimonidine, 5-bromo-6-(2-imidazolidinylideneamino)quinoxaline L-tartrate]
Rebound hyperemia after one dose (share of patients) [1]: 6.6%
rebound hyperemia after third application [2]: without rebound hyperemia
concentration giving rebound virtually identical to tetrahydrozaline, naphazoline and oxymetazoline [3]: ≥ 0.10%
Flap dislocation rate ([4]; Naphcon-A, brimonidine 0.02% preoperatively, initial trial): under 1%
adverse cardiovascular events ([4]; brimonidine 0.02%): No adverse cardiovascular events
rebound on repeated use [5]: without rebound
